{
  "source": "paper PMC5045942",
  "about": "“Evaluation of a novel PXR‐knockout in HepaRG™ cells” (Pharmacology Research & Perspectives, 2016)",
  "system": "CYP3A4 mRNA",
  "test": "CYP3A4 mRNA induction in 5F HepaRG control cells (real-time PCR)",
  "details": "read-out: EC50, induction of CYP3A4 mRNA, 5F; 5F cells; 48 h; value of each individual experiment (two per cell)",
  "data": [
    {"smiles": "NC(=O)N1c2ccccc2C=Cc2ccccc21", "note": "[Carbamazepine, carbamazepine]", "values": [
      {"measurement": "EC50", "result": 42.1, "unit": "µM"}
    ]}
  ]
}
